This experiment concerns the target BRD4 (Homo sapiens, UniProt O60885). Description: BRD4 degradation by Western blot analysis in MDA-MB-231 cells. The note with it: MDA-MB-231, read-out: Dmax (maximal % of reduction toward DMSO control lane).

The structures appear in SMILES notation.

As to `Cc1sc2c(c1C)C(c1ccc(Cl)cc1)=N[C@@H](CC(=O)N1CCN(CC(=O)NCCCCOc3cccc4c3C(=O)N(C3CCC(=O)NC3=O)C4=O)CC1)c1nnc(C)n1-2` (stereo partly drawn) [Compound 33, 2-(4-(2-((S)-4-(4-Chlorophenyl)-2,3,9-trimethyl-6H-thieno[3,2-f][1,2,4]triazolo[4,3-a][1,4]diazepin-6-yl)acetyl)piperazin-1-yl)-N-(4-((2-(2,6-dioxopiperidin-3-yl)-1,3-dioxoisoindolin-4-yl)oxy)butyl)acetamide], the Dmax was 78%.

(Values after PMC9706574, “A Versatile and Sustainable Multicomponent Platform for the Synthesis of Protein Degraders: Proof-of-Concept Application to BRD4-Degrading PROTACs” (Journal of Medicinal Chemistry, 2022).)
